Reference: patent US12281147

Legend:
[1] = molecular target: mouse IL-21R, His-tagged (BLI antigen) (mouse) (UniProt Q9JHX3); experiment: BLI
[2] = molecular target: recombinant human IL-21R His tag (Acro Biosystems) (human) (UniProt Q9HBE5); experiment: BLI
[3] = molecular target: mouse IL-21R on T cells of mouse splenocytes (mouse) (UniProt Q9JHX3); experiment: cell-based or functional assay
mouse IL-21R (mouse) [4] = molecular target: mouse IL-21R (mouse) (UniProt Q9JHX3); experiment: AlphaSeq yeast mating assay, pH 5 media
mouse IL-21R (mouse) [5] = molecular target: mouse IL-21R (mouse) (UniProt Q9JHX3); experiment: AlphaSeq yeast mating assay, pH 6 media
mouse IL-21R (mouse) [6] = molecular target: mouse IL-21R (mouse) (UniProt Q9JHX3); experiment: AlphaSeq yeast mating assay, pH 7 media
mouse IL-21R (mouse) [7] = molecular target: mouse IL-21R (mouse) (UniProt Q9JHX3); experiment: AlphaSeq yeast mating assay, unbuffered media
mouse IL-21R (mouse) [8] = molecular target: mouse IL-21R (mouse) (UniProt Q9JHX3); experiment: AlphaSeq yeast agglutination, pH 5 media
mouse IL-21R (mouse) [9] = molecular target: mouse IL-21R (mouse) (UniProt Q9JHX3); experiment: AlphaSeq yeast agglutination, pH 6 media
mouse IL-21R (mouse) [10] = molecular target: mouse IL-21R (mouse) (UniProt Q9JHX3); experiment: AlphaSeq yeast agglutination, pH 7 media
mouse IL-21R (mouse) [11] = molecular target: mouse IL-21R (mouse) (UniProt Q9JHX3); experiment: AlphaSeq yeast agglutination, unbuffered media
[12] = molecular target: wild-type mouse IL-21R (mouse) (UniProt Q9JHX3); experiment: AlphaSeq yeast mating, pH 5 media
[13] = molecular target: wild-type mouse IL-21R (mouse) (UniProt Q9JHX3); experiment: AlphaSeq yeast mating, pH 6 media
[14] = molecular target: wild-type mouse IL-21R (mouse) (UniProt Q9JHX3); experiment: AlphaSeq yeast mating, pH 7 media
[15] = molecular target: wild-type mouse IL-21R (mouse) (UniProt Q9JHX3); experiment: AlphaSeq yeast mating, unbuffered media

| Substance | Kd [1] [µM] | Kd [2] [µM] | Mouse T cell EC50 (pM), pSTAT3 phosflow [3] [pM] | other results |
| --- | --- | --- | --- | --- |
| IL-21_mouse_A56D Fc fusion protein (from UniProt Q9ES17 18-146) | 0.00477 | 0.00732 |  |  |
| IL-21_mouse_A68E Fc fusion protein (from UniProt Q9ES17 18-146) | 0.00434 |  | 13300 |  |
| IL-21_mouse_D26P Fc fusion protein (from UniProt Q9ES17 18-146) | 0.0402 |  | 26 |  |
| IL-21_mouse_D26T Fc fusion protein (from UniProt Q9ES17 18-146) | 0.000685 |  | 35 |  |
| IL-21_mouse_D37P Fc fusion protein (from UniProt Q9ES17 18-146) |  | 0.0025 | 1460 |  |
| IL-21_mouse_F69H Fc fusion protein (from UniProt Q9ES17 18-146) | 0.00133 |  | 26300 |  |
| IL-21_mouse_F69M Fc fusion protein (from UniProt Q9ES17 18-146) | 0.00565 | 0.00919 | 6.7 |  |
| IL-21_mouse_F88D Fc fusion protein (from UniProt Q9ES17 18-146) | 0.00326 | 0.00594 | 5.7 |  |
| IL-21_mouse_I30R Fc fusion protein (from UniProt Q9ES17 18-146) | 0.0135 |  | 10 |  |
| IL-21_mouse_I30V Fc fusion protein (from UniProt Q9ES17 18-146) | 0.00615 | 0.00886 | 5.8 |  |
| IL-21_mouse_I38A Fc fusion protein (from UniProt Q9ES17 18-146) | 0.00661 | 0.00461 | 140 |  |
| IL-21_mouse_I38D Fc fusion protein (from UniProt Q9ES17 18-146) |  | 0.00458 | 13900 |  |
| IL-21_mouse_I89D Fc fusion protein (from UniProt Q9ES17 18-146) | 0.00607 | 0.00319 | 10700 |  |
| IL-21_mouse_L35K Fc fusion protein (from UniProt Q9ES17 18-146) |  |  | 11400 |  |
| IL-21_mouse_L92E Fc fusion protein (from UniProt Q9ES17 18-146) | 0.0104 | 0.00354 | 14700 |  |
| IL-21_mouse_L96M Fc fusion protein (from UniProt Q9ES17 18-146) | 0.00611 | 0.00452 | 76 |  |
| IL-21_mouse_L100S Fc fusion protein (from UniProt Q9ES17 18-146) | 0.00871 | 0.199 | 10500 |  |
| IL-21_mouse_L130W Fc fusion protein (from UniProt Q9ES17 18-146) | 0.012 |  |  |  |
| IL-21_mouse_N85I Fc fusion protein (from UniProt Q9ES17 18-146) |  |  | 5250 |  |
| IL-21_mouse_P57E Fc fusion protein (from UniProt Q9ES17 18-146) | 0.0216 | 0.105 |  |  |
| IL-21_mouse_P101L Fc fusion protein (from UniProt Q9ES17 18-146) |  |  | 2500 |  |
| IL-21_mouse_Q95S Fc fusion protein (from UniProt Q9ES17 18-146) | 0.00661 | 0.00935 | 29 |  |

| Substance | Kd [1] [µM] | Kd [2] [µM] | Mouse T cell EC50 (pM), pSTAT3 phosflow [3] [pM] | other results |
| --- | --- | --- | --- | --- |
| IL-21_mouse_R27D Fc fusion protein (from UniProt Q9ES17 18-146) | 0.0908 | 0.151 | 345 |  |
| IL-21_mouse_R27S Fc fusion protein (from UniProt Q9ES17 18-146) | 0.0109 | 0.0222 | 18 |  |
| IL-21_mouse_R97V Fc fusion protein (from UniProt Q9ES17 18-146) |  |  | 140 |  |
| IL-21_mouse_R98A Fc fusion protein (from UniProt Q9ES17 18-146) | 0.0427 |  | 60 |  |
| IL-21_mouse_R99L Fc fusion protein (from UniProt Q9ES17 18-146) | 0.00659 | 0.0105 | 20 |  |
| IL-21_mouse_V60K Fc fusion protein (from UniProt Q9ES17 18-146) | 0.014 | 0.0401 | 4420 |  |
| IL-21_mouse_WT Fc fusion protein (from UniProt Q9ES17 18-146) |  |  | 6.7 |  |
| IL-21_mouse_Y45D Fc fusion protein (from UniProt Q9ES17 18-146) |  | 0.00431 | 5100 |  |
| IL-21_mouse_Y45Q Fc fusion protein (from UniProt Q9ES17 18-146) | 0.00705 | 0.00837 | 82 |  |
| IL-21m_L145A (from UniProt Q9ES17 22-144) (ligand) |  |  |  | Kd (mouse IL-21R (mouse) [4]): 0.057 µM; Kd (mouse IL-21R (mouse) [5]): 0.009 µM; Kd (mouse IL-21R (mouse) [6]): 0.004 µM; Kd (mouse IL-21R (mouse) [7]): 6.3 µM |
| IL-21m_L145D (from UniProt Q9ES17 22-144) (ligand) |  |  |  | Kd (mouse IL-21R (mouse) [8]): 0.21 µM; Kd (mouse IL-21R (mouse) [9]): 0.018 µM; Kd (mouse IL-21R (mouse) [10]): 0.009 µM; Kd (mouse IL-21R (mouse) [11]): 13 µM |
| IL-21m_L145F (from UniProt Q9ES17 22-144) (ligand) |  |  |  | Kd (mouse IL-21R (mouse) [4]): 0.11 µM; Kd (mouse IL-21R (mouse) [5]): 0.01 µM; Kd (mouse IL-21R (mouse) [6]): 0.006 µM; Kd (mouse IL-21R (mouse) [7]): 11 µM |
| IL-21m_L145G (from UniProt Q9ES17 22-144) (ligand) |  |  |  | Kd (mouse IL-21R (mouse) [8]): 0.096 µM; Kd (mouse IL-21R (mouse) [9]): 0.012 µM; Kd (mouse IL-21R (mouse) [10]): 0.006 µM; Kd (mouse IL-21R (mouse) [11]): 13 µM |
| IL-21m_L145H (from UniProt Q9ES17 22-144) (ligand) |  |  |  | Kd (mouse IL-21R (mouse) [4]): 0.13 µM; Kd (mouse IL-21R (mouse) [5]): 0.012 µM; Kd (mouse IL-21R (mouse) [6]): 0.005 µM; Kd (mouse IL-21R (mouse) [7]): 5.6 µM |
| IL-21m_L145K (from UniProt Q9ES17 22-144) (ligand) |  |  |  | Kd (mouse IL-21R (mouse) [4]): 0.057 µM; Kd (mouse IL-21R (mouse) [5]): 0.009 µM; Kd (mouse IL-21R (mouse) [6]): 0.004 µM; Kd (mouse IL-21R (mouse) [7]): 4.2 µM |
| IL-21m_L145P (from UniProt Q9ES17 22-144) (ligand) |  |  |  | Kd (mouse IL-21R (mouse) [4]): 1.2 µM; Kd (mouse IL-21R (mouse) [5]): 0.024 µM; Kd (mouse IL-21R (mouse) [6]): 0.013 µM; Kd (mouse IL-21R (mouse) [7]): 73 µM |
| IL-21m_L145Q (from UniProt Q9ES17 22-144) (ligand) |  |  |  | Kd [12]: 0.06 µM; Kd [13]: 0.009 µM; Kd [14]: 0.004 µM; Kd [15]: 2.5 µM |
| IL-21m_L145R (from UniProt Q9ES17 22-144) (ligand) |  |  |  | Kd (mouse IL-21R (mouse) [8]): 0.14 µM; Kd (mouse IL-21R (mouse) [9]): 0.013 µM; Kd (mouse IL-21R (mouse) [10]): 0.007 µM; Kd (mouse IL-21R (mouse) [11]): 11 µM |
| IL-21m_L145S (from UniProt Q9ES17 22-144) (ligand) |  |  |  | Kd (mouse IL-21R (mouse) [4]): 0.13 µM; Kd (mouse IL-21R (mouse) [5]): 0.015 µM; Kd (mouse IL-21R (mouse) [6]): 0.007 µM; Kd (mouse IL-21R (mouse) [7]): 7.4 µM |
| IL-21m_L145W (from UniProt Q9ES17 22-144) (ligand) |  |  |  | Kd (mouse IL-21R (mouse) [8]): 0.13 µM; Kd (mouse IL-21R (mouse) [9]): 0.012 µM; Kd (mouse IL-21R (mouse) [10]): 0.006 µM; Kd (mouse IL-21R (mouse) [11]): 12 µM |
| IL-21m_L145Y (from UniProt Q9ES17 22-144) (ligand) |  |  |  | Kd (mouse IL-21R (mouse) [4]): 0.066 µM; Kd (mouse IL-21R (mouse) [5]): 0.011 µM; Kd (mouse IL-21R (mouse) [6]): 0.005 µM; Kd (mouse IL-21R (mouse) [7]): 4.7 µM |
| IL-21m_P22R (from UniProt Q9ES17 23-145) (ligand) |  |  |  | Kd (mouse IL-21R (mouse) [4]): 0.079 µM; Kd (mouse IL-21R (mouse) [5]): 0.01 µM; Kd (mouse IL-21R (mouse) [6]): 0.006 µM; Kd (mouse IL-21R (mouse) [7]): 19 µM |
